In US7507792B2, “MDA-7 proteins and methods of use thereof” (The Trustees of Columbia University In The City of New York, priority 1993, dated 2009):

Experiments:
wild-type p53 protein = experiment: Immunoprecipitation of p53 in H0-1 cells; type: cell-based, human; details: IFN-β 2000 units/ml, MEZ 10 ng/ml
Experimental: (§1) Immunoprecipitation analyses were performed as described previously (Duigou et al., 1991; Su et al., 1993; Jiang et al., 1994b). Logarithmically growing H0-1 cells were either untreated or treated for 24, 48, 72 or 96 h with IFN-β (2000 units/ml), MEZ (10 ng/ml) or IFN-β+MEZ (2000 units/ml+10 ng/ml) in 10-cm plates. Cultures were starved of methionine for 1 h at 37° C. in methionine-free medium, cells were concentrated by pelleting and labeled for 1 h (p53) or 4 h (p21 and Actin) at 37° in 1 ml of the same medium with 100 μCi of [^35S] (NEN; Express ^35S). After labeling, the cells were washed twice with ice-cold phosphate-buffered saline and lysed for 1 h on ice by the addition of RIPC (20 mM Tris-base, pH 7.5, 500 mM NaCl, 0.05% Nonidet P-40, 100 μg/ml phenylmethylsulfonyl fluoride and 0.02% sodium azide). The lysate was clarified by centrifugation in an Eppendorf microfuge at 10,000×g for 10 min at 4° C. H0-1 samples containing 4×10^6 counts were incubated with 2 μg of p53 monoclonal antibody (Ab1; PAb421) (Oncogene Sciences), WAF1/CIP1 (C-19) (Santa Cruz Biotechnology) (or MDA-6 peptide-derived) rabbit polyclonal IgG or actin monoclonal antibody (Oncogene Sciences) with rocking at 4° C. for 24 h. Labeled cell lysates were also prepared from F0-1, L0-1, SH-1, WM239, FM516-SV, SW480, MeWo, human skin fibroblasts and Saos-2 cells. […]

mda-7 = mda-7 expression (Northern blotting, RT-PCR); type: cell-based, human; details: H0-1
Experimental: The mass excision of the library was performed using ExAssist helper phage as described above. The SOLR strain of Escherichia coli and cDNA phagemids were mixed at 37° C. for 15 min and plated onto LB plates containing ampicillin and IPTG/X-gal. White colonies were chosen at random, isolated and grown in LB medium. Plasmid minireps and restriction enzyme digestions were performed to confirm the presence of inserts. The inserts were isolated and used as robes for Northern blotting analysis (5,25). […] Radiolabeled probes were generated by random oligonucleotide priming (25). Prehybridization, hybridization, posthybridization washes, and autoradiography were performed as described (5,18,25).

p21 protein = experiment: Immunoprecipitation of p21 in H0-1 cells; type: cell-based, human; details: IFN-β 2000 units/ml, MEZ 10 ng/ml
Experimental: as §1

[1] = system: H0-1 human melanoma cell line; experiment: 96-h growth suppression (cell number by Coulter Counter); type: cell-based; details: H0-1 cells, degree of initial 96 hr growth suppression versus untreated control
Experimental: FIG. 1A-B Effect of continuous exposure to various growth and differentiation modulating agents on the 96-h growth of the human melanoma cell line, H0-1. Cells were seeded at 5×10^4/35-mm tissue culture plate and 24 h later the medium was changed with the indicated compounds. Cell numbers were determined by Coulter Counter after 96-h growth. Further details can be found in Materials and Methods. The abbreviations and the concentrations of test compounds uses: IFN-β+MEZ (recombinant human fibroblast interferon+mezerein)) (2,000 U/ml+10 ng/ml); MPA+MEZ (mycophenolic acid+MEZ) (3.0 μM+10 ng/ml); RA+MEZ (trans-retinoic acid+MEZ) (2.5 μM+10 ng/ml); IFN-β+IFN-G (IFN-β+recombinant human gamma interferon) (1,000 U/ml+1,000 U/ml); MEZ (10 ng/ml); MPA (3.0 μM); IFN-G (2,000 U/ml); IFNβ (2,000 U/ml); RA (2.5 μM); and Control (media only).
The H0-1 cell line is a melanotic melanoma derived from a person and was used between passage 100 and 125 (6,8,13). H0-1 cells were kindly provided by Dr. Beppino C. Giovanella, Stehlin Foundation for Cancer Research, Houston, Tex. […] Total cell numbers were determined after days 4, 7, 14, and 21, using a ZM Coulter Counter, and viable cell numbers were determined by trypan blue dye exclusion (6). […]

B1: IFN-β: Recombinant human IFN-β, with a serine substituted for a cysteine at position 17 of the molecule (protein)
chain: MSYNLLGFLQRSSNFQCQKLLWQLNGRLEYCLKDRMNFDIPEEIKQLQQFQKEDAALTIYEMLQNIFAIFRQDSSSTGWNETIVENLLANVYHQINHLKTVLEEKLEKEDFTRGKLMSSLHLKRYYGRILHYLKAKEYSHCAWTIVRVEILRNFYFINRLTGYLRN
**Q.** With B1 as the molecule, how does the “wild-type p53 protein level” value (wild-type p53 protein; 24 h) read?
**A.** Its value is “no significant change”.

**Q.** What about the “wild-type p53 protein level” value (wild-type p53 protein; over 48, 72, 96 h) of the same molecule?
**A.** Its value is “no change”.

**Q.** What about the mda-7 expression (mda-7; 24 hours, doses of FIG. 19, phenyl butyrate 24 hours, 4 days or 7 days) of the same molecule?
**A.** The mda-7 expression was “increased mda-7 expression”.

**Q.** What about the mda-7 expression (mda-7; 96 hours, doses of FIG. 15 legend) of the same molecule?
**A.** The mda-7 expression was “Increased expression”.

**Q.** What about the “p21 mRNA and protein” value (p21 protein; 24 h) of the same molecule?
**A.** Its value is “induced”.

**Q.** What about the p21 protein level (p21 protein; over 48, 72, 96 h) of the same molecule?
**A.** Its p21 protein level is “Increases”.

**Q.** And the “Growth Suppression (reversible)” value ([1]; Table 1)?
**A.** The value was 3+ (3+ = ~50 to 60% reduction in growth in comparison with untreated control cultures).

**Q.** And the “Growth Suppression (reversible)” value ([1]; Table 2)?
**A.** The value was 3+ (3+ = ~50 to 60% reduction in growth in comparison with untreated control cultures).
